Values of other authors in patent US20230104358A1 (priority 2021, published 2023).

System: cholinergic muscarinic receptors

Cc1nc2n(c(=O)c1CCN1CCC(c3noc4cc(F)ccc34)CC1)CCCC2 [Risperidone]
affinity for cholinergic muscarinic receptors: no affinity
